# Source: patent US7906482B2, “Anti-obesity agents” (Advanced Diagnostics and Discovery, priority 1999, dated 2011)
# Test system: Sprague-Dawley rats
# Assay: Food intake in rats following IV administration
# Type: in vivo, rat
# Details: tail vein injection
# Source text: FIG. 1 is a diagram showing a comparison between the anti-obesity activity of PYY3-36 and the anti-obesity activity a compound according to a preferred embodiment of the invention, wherein the anti-obesity activity of these compounds has been determined in an experiment by administering them, at various doses, to Sprague-Dawley rats and by measuring the food consumption of these rats before and after administration of these compounds;
# FIG. 2 is another diagram as in FIG. 1, wherein the PYY peptide and the compound according to a preferred embodiment of the invention have been administered to the rats according to other dosages;
# FIG. 3 is a diagram showing the reduction in food intake after 24 hours, which has been generated by the administration of the PYY peptide and the compound of the invention, during the experiment described in FIG. 1;
# FIG. 4 is a diagram showing the reduction in food intake after 24 hours, which has been generated by the administration of the PYY peptide and the compound of the invention, during the experiment described in FIG. 2; and
# Compound I (PYY3-36) and Compound III were injected into the tail vein of fully grown Sprague-Dawley rats. Two experiments were carried out so as to verify the influence of the concentration on Compound III of the food consumption of the animal. The food intake was measured pre and post administration (see FIGS. 1 and 2). […]
smiles,measurement,setting,value
CC[C@H](C)[C@H](N)C(=O)N[C@@H](CCCCN)C(=O)N1CCC[C@H]1C(=O)N[C@@H](CCC(=O)O)C(=O)N[C@@H](C)C(=O)N1CCC[C@H]1C(=O)NCC(=O)N[C@@H](CCC(=O)O)C(=O)N[C@@H](CC(=O)O)C(=O)N[C@@H](C)C(=O)N[C@@H](CO)C(=O)N1CCC[C@H]1C(=O)N[C@@H](CCC(=O)O)C(=O)N[C@@H](CCC(=O)O)C(=O)N[C@@H](CC(C)C)C(=O)N[C@@H](CC(N)=O)C(=O)N[C@@H](CCCNC(=N)N)C(=O)N[C@@H](Cc1ccc(O)cc1)C(=O)N[C@@H](Cc1ccc(O)cc1)C(=O)N[C@@H](C)C(=O)N[C@@H](CO)C(=O)N[C@@H](CC(C)C)C(=O)N[C@@H](CCCNC(=N)N)C(=O)N[C@@H](Cc1c[nH]cn1)C(=O)N[C@@H](Cc1ccc(O)cc1)C(=O)N[C@@H](CC(C)C)C(=O)N[C@@H](CC(N)=O)C(=O)N[C@@H](CC(C)C)C(=O)N[C@H](C(=O)N[C@H](C(=O)N[C@@H](CCCNC(=N)N)C(=O)N[C@@H](CCC(N)=O)C(=O)N[C@@H](CCCNC(=N)N)C(=O)N[C@@H](Cc1ccc(O)cc1)C(N)=O)[C@@H](C)O)C(C)C [Compound I],reduction in food intake after 24 hrs,dose of 25 nmol/kg,does not show reduction in food
same,reduction in food intake after 24 hrs,dose of 375 nmol/kg,does not show reduction in food
